scFv variants of Ab-14 (heavy chain) against a SARS-CoV-2 spike peptide

From the AlphaSeq antibody data of Li et al. 2023 (doi:10.1038/s41467-023-39022-2), copy in the FLAb collection.

All variants were tested on one target, the spike HR2 peptide PDVDLGDISGINAS (SARS-CoV-2).

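Phage display of a naive human antibody library on the peptide gave the parent. These sequences belong to a second round, designed from the earlier measurements on random variants of the parent. Group labels follow the data file (Ctrl: baseline library sampled from a position-specific scoring matrix, with some repeated check sequences; Rand: our label for a block that the file lists under HC and that is probably the random mutants of the ten best first-round binders; En: ensemble of fine-tuned language models; GP: Gaussian process model; GPLM: also part of the Gaussian process libraries; HC: hill climbing; Gen: genetic algorithm; Gibbs: Gibbs sampling; a sequence that several methods proposed may carry one label only). Affinity was read by AlphaSeq, a pooled yeast mating assay with surface-displayed partners. The frequency of each diploid, read from paired DNA barcodes, reflects how well the two displayed proteins bind. Each replicate has its own calibration line, from reference interactions of the BCL2 family. Mating was done six times.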

Parent: Ab-14, a human scFv built as VH, three GGGGS repeats, VL. Only the CDRs of the heavy chain vary.
VH: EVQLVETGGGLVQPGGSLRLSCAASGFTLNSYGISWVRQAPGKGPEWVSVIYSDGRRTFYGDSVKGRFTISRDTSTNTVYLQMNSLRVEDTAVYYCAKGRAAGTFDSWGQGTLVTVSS
VL: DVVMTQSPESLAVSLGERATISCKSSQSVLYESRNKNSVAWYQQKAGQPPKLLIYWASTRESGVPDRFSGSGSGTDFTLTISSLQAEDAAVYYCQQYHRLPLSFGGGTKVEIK

Each variant is given by its three heavy chain CDRs, as the data file delimits them; those of the parent are GFTLNSYGIS, VIYSDGRRTFYGDSVK, GRAAGTFDS. The read-out is the apparent dissociation constant on a log10 scale (nM): the lower, the stronger. The mean shown is taken over the replicates in which the pair was detected. An entry "ND" has no value in the source: the pair was not observed among the diploids in that replicate. This suggests poor binding but is not conclusive. The parent sequence was in this pool as ten entries: three were never detected, three once, and four in most replicates, with averages from 0.34 to 2.37.

For GFSLNSYGIS / VIYSDGRRTFYVDSVK / GTVAGTFDS [GPLM_Gibbs], the assay gave -0.09, -0.17, -0.06, -0.07, -0.03, 0.28 (mean -0.03).
For GFGLNEYGIS / VIYSDGRRTFYGDSVK / GKQAGTFDS [GP_Gen], the assay gave -0.10, 0.37, -0.40, -0.41, -0.59, 0.00 (mean -0.19).
For GFDLGEYGVS / VIYADGLRAQYASKVK / GNFSGNIDV [En_Gibbs], the assay gave ND, ND, ND, ND, ND, ND.
For GFDLNEYGIS / VIYSDGRRTFYTDSVK / GRAAGTFDS [GP_HC], the assay gave ND, ND, ND, ND, ND, ND.
For GFDLNEYGIS / VIYADGRRTQYIDSVK / GNNAGTFDV [En_HC], the assay gave -0.04, -0.24, -0.20, -0.64, -0.53, -0.14 (mean -0.30).
For GFELNEYGIS / VIYSDGRRTFYGDSVK / GRVAGTFDT [GP_Gen], the assay gave 0.24, -0.15, -0.16, -0.16, 0.46, -0.25 (mean 0.00).
For GFTLNSYGIS / VIYSDGRRTFYGDSVK / GRAAGTFSS [Ctrl], the assay gave ND, ND, ND, ND, 1.90, ND.
For GFELNEYGIS / VIYSDGRRTFYGDSVK / GRTAGTFDC [GP_Gibbs], the assay gave ND, ND, ND, ND, ND, ND.
For GFKLNSYGIS / VIYSDGRRTFYDDSVK / GKTAGTFDS [GP_HC], the assay gave ND, ND, 1.46, ND, ND, 0.87 (mean 1.17).
For GFSLNSYGIS / VIYSDGRRTFYDDSVK / GLLAGTFDS [GP_HC], the assay gave 2.80, ND, ND, ND, 2.85, 2.31 (mean 2.65).
For GRTLNSYGIS / VIYSDGLRTFYGDSVK / GRAAGTFDS [Ctrl], the assay gave ND, 0.74, 1.01, 2.52, 2.44, ND (mean 1.68).
For GFTLNSYGIS / VIYSDGRRTEYGDSVK / GKAAGTFDS [Ctrl], the assay gave 2.09, 1.25, 2.39, 1.42, 1.98, 2.30 (mean 1.90).
For GFTLNSYGIS / VIYSDGLRTFYGDQVK / GWAKGTSNS [Ctrl], the assay gave ND, ND, ND, ND, ND, ND.
For GFDLNEYGIS / VIYADGVRTFYSDSVK / GEAAGTFDQ [En_HC], the assay gave -0.63, -0.68, -0.59, -0.48, -0.48, -0.84 (mean -0.61).
For GFNLNSYGIS / VIYSDGRRTFYGDSVK / GRLALTFDS [Ctrl], the assay gave ND, ND, ND, ND, ND, ND.
For GFSLNEYGIS / VIYSDGRRTFYQDSVK / GNAAGTFDS [GP_Gen], the assay gave 0.47, -0.40, -0.41, -0.20, 0.04, 0.25 (mean -0.04).
For GFDLNEYGIS / VIYADGVRTAYADSVK / GQVAGTFDS [En_HC], the assay gave -0.38, -0.54, -0.59, -0.45, -0.44, -0.48 (mean -0.48).
For GGDLEKYGIS / VIYADGKRSEYSDAVK / GQQAGTLNT [En_Gibbs], the assay gave ND, ND, ND, ND, ND, ND.
For GFRLNEYGIS / VIYSDGRRTFYGDSVK / GRAAGTFDK [GP_HC], the assay gave ND, 0.99, ND, ND, 0.47, 0.89 (mean 0.78).
For GFTLNSYGIS / VIYSDGRRTHYGDSVK / GRAACTFWS [Ctrl], the assay gave ND, ND, ND, ND, ND, ND.
For GFDLNEYGIS / VIYADGRRTFYIDSVK / GEVAGTFDV [En_HC], the assay gave -0.61, -0.83, -1.02, -0.80, -0.25, -0.61 (mean -0.69).
For GFTLNSYGIS / VIYSDGRRTFYSDSVK / GRWAGSFHS [Ctrl], the assay gave ND, 2.37, ND, ND, ND, ND.
For GFSLNDYGIS / VIYSDGRRTFYGDSVK / GQAAGTFDS [GPLM_Gen], the assay gave 0.03, -0.02, 0.13, 0.05, -0.05, 0.13 (mean 0.04).
For GFDLEEYGIS / VIYADGMRTAYADSVK / GNVAGTFDL [En_Gen], the assay gave -0.19, -0.42, 0.12, -0.51, -0.30, -0.26 (mean -0.26).
For GFDLNEYGIS / VIYSDGRRTFYTDSVK / GRNAGTFDS [GP_HC], the assay gave -0.63, -0.65, -1.10, -1.33, -0.98, -1.18 (mean -0.98).
For GFTLNSYGIS / VIYSDGRRTFYGDSVK / GRGAGTGDI [Ctrl], the assay gave ND, ND, ND, ND, ND, ND.
For GFDLEEYGIS / VIYADGMRQYYVNSVK / GTANDFDML [En_Gibbs], the assay gave ND, ND, ND, ND, ND, ND.
For GFCLNEYGWS / VIYSDGRRTFYGDSVK / GRAAGTFDS [Ctrl], the assay gave ND, ND, ND, 2.39, ND, ND.
For GFNLNEYGIS / VIYADGRRKAYADSVK / GNTAGTFDV [En_HC], the assay gave -0.67, 0.05, -1.08, -0.79, -0.99, -0.72 (mean -0.70).
For GFDLDEYGIS / VIYADGMRTAYSDSVK / GNVAGTFDI [En_Gen], the assay gave -0.40, -0.57, -0.43, -0.39, -0.50, -0.29 (mean -0.43).
For GFDLNEYGIS / VIYADGRRTFYADSVK / GQLAGTFDQ [En_HC], the assay gave -0.09, 0.10, -0.30, -0.57, -1.12, -0.70 (mean -0.45).
For GFTLNDYPIS / VIYSDGRRTQYIDSVK / GRTAGTFDS [Rand], the assay gave ND, ND, ND, ND, 2.13, ND.
For GFDLNEYGIS / VIYADGRRTFYADSVK / GSNAGTFNM [En_HC], the assay gave 0.03, -0.10, -0.04, -0.20, 0.04, 0.29 (mean 0.00).
For GFTLNSQGIS / VIYSDGRRTFYGDSVK / GRAKGTFDS [Ctrl], the assay gave ND, ND, ND, ND, ND, ND.
For GFDLNEYGIS / VIYADGRRTFYSDSVK / GSTAGTFDV [En_HC], the assay gave -0.37, -0.42, -0.78, -0.68, -0.62, -0.51 (mean -0.56).
For GFDVNEYGIS / VIYADGVRRTYADAVK / GKLSGVVDV [En_Gibbs], the assay gave ND, ND, ND, ND, ND, ND.
For GFSLNSYGIS / VIYSDGRRAFYGDSVK / GRTAGTFDS [GPLM_Gen], the assay gave 0.60, 0.96, 0.54, 1.01, 0.63, 1.53 (mean 0.88).
For GNSLNEYGIS / VIYSDGRRTFYTDSVK / GRTAGTFDS [GP_HC], the assay gave 2.02, 2.14, ND, 2.94, ND, ND (mean 2.37).
For GFTLNDYGIS / VIYSHGRRTFYGDSVK / DRAALTFIS [Rand], the assay gave ND, ND, ND, ND, ND, ND.
For GFDLNEYGIS / VIYADGKRTAYIDSVK / GNTAGTFDV [En_Gen], the assay gave -0.03, -0.54, -0.72, 0.21, -0.57, -0.35 (mean -0.33).
For GFNLNSYGIS / VIYSDGRRTFYGDSVK / GQEAGTFDR [GP_Gibbs], the assay gave 0.08, 0.61, 0.12, 0.30, 0.24, 0.15 (mean 0.25).

Repeated from above, the 5 best binders with a signal in all replicates:

With GFDLNEYGIS / VIYSDGRRTFYTDSVK / GRNAGTFDS [GP_HC] the result was -0.63, -0.65, -1.10, -1.33, -0.98, -1.18 (mean -0.98).
With GFNLNEYGIS / VIYADGRRKAYADSVK / GNTAGTFDV [En_HC] the result was -0.67, 0.05, -1.08, -0.79, -0.99, -0.72 (mean -0.70).
With GFDLNEYGIS / VIYADGRRTFYIDSVK / GEVAGTFDV [En_HC] the result was -0.61, -0.83, -1.02, -0.80, -0.25, -0.61 (mean -0.69).
With GFDLNEYGIS / VIYADGVRTFYSDSVK / GEAAGTFDQ [En_HC] the result was -0.63, -0.68, -0.59, -0.48, -0.48, -0.84 (mean -0.61).
With GFDLNEYGIS / VIYADGRRTFYSDSVK / GSTAGTFDV [En_HC] the result was -0.37, -0.42, -0.78, -0.68, -0.62, -0.51 (mean -0.56).

The range of this assay differs from that of the first round, and the authors advise against merging the two. In the paper, a design with two or fewer of six values counts as a poor binder. Nonspecific signal, from three strains lacking the peptide, appeared in 1% of pairings of all heavy chain designs, centred on 2.08 (5% of these signals below 0.84); values are not corrected for it.